From patent US7060428B2, “Methods and compositions useful for the prediction of blood-brain barrier permeation” (Wyeth, priority 2001, dated 2006)

Conditions: pH 7.4 buffer, 18 h, literature compounds

Enoxin
Pe (linear velocity of permeation) (ambient temperature, averaged): 0.90 10^−6 cm/s
CNS Eval (BBB permeability designation from Pe): − (CNS− for Pe values ≦2×10^−6 cm/sec)
